{
  "source": "patent US10829484B2",
  "about": "“Compounds and methods for kinase modulation, and indications therefor” (Plexxikon Inc., priority 2015, dated 2020)",
  "origin": "cited, not measured here",
  "tested_on": "FLT3-ITD+ AML",
  "conditions": "relapsed or chemotherapy-refractory FLT3-ITD+ AML patients, monotherapy; cited from earlier work",
  "data": [
    {"smiles": "CC(C)(C)c1cc(NC(=O)Nc2ccc(-c3cn4c(n3)sc3cc(OCCN5CCOCC5)ccc34)cc2)no1", "note": "[quizartinib]", "values": [
      {"measurement": "composite complete remission (CRc) rate", "result": "about 50%"}
    ]}
  ]
}
